How the values were obtained:
[1] = tested on: human erythrocytes; assay: Hemolysis assay; type: cell-based; conditions: for Hemolysis (μM) in 50% plasma: highest peptide concentration that resulted in <5% erythrocyte lysis, 1 hour, human plasma; for concentration still safe for erythrocytes: 50% v/v human plasma
[2] = tested on: erythrocytes; conditions: at 100 μg/ml; PBS alone; Cai et al., 2018; cited from earlier work
[3] = tested on: normal human melanocytes; assay: Selective killing of melanoma cells (LDH release), normal cells; type: cell-based; conditions: 51.2 μM; 4 hours
Protocol: Normal melanocytes (up to 4 passages) and 4 melanoma cell lines (mel 11.11, mel 12.13, mel 05.18, mel 09.03) were cultured overnight 37° C. at a concentration of 2×10^4 cells/well in 100 μl of DMEM supplemented with 7.5% (v/v) fetal calf serum in a humidified 5% CO2 atmosphere. The next day 75 μl of medium were removed and then 25 μl of double concentrated peptide (SP4 and SP27) solutions prepared in DMEM supplemented with 0.5% human serum were added. After an incubation for 4 hours in a humidified 5% CO2 atmosphere at 37° C. the supernatant was removed for measurement of the LDH release using the Roche kit. The background LDH release by the cells, determined by exposing the cells to DMEM with 0.5% serum without peptide, was subtracted from the values for the peptide-exposed cells. Finally, the results ae expressed as the percentage LDH release using the values found for triton-exposed cells as 100%.

[4] = Table 5, highest concentration lysing less than 5% of human erythrocytes in human plasma within 1 hour
[5] = Table 6, highest concentration lysing less than 5% of human erythrocytes in human plasma within 1 hour

Row | Substance | Hemolysis (μM) in 50% plasma [1] [µM] | further results
1 | KRFLRVFKKLKRGIRKLFKKKKIVTGPLTS [SP19] | 204.8 | 
2 | FRKVKKGVHRYFKKNKFYIAATIP [SP27-69] |  | Toxicity [1, 4]: 409.6 µM
3 | RKFKKSFKKIRKWVKKATKIAGEVAVEILITKVILGSVGL [SP1] | 51.2 | 
4 | KRFKDFFHRIRDGVRDFFRNNHFVCGVNFRF [SP17] | 51.2 | 
5 | KRFKKFFRKLKKSVKKRAKEFFKKPRVIGVSIPF [SP5] | 204.8 | 
6 | KRFTFYKKVKKNVENLLNKFFKKLRVIGDSIPF [SP26] | 102.4 | 
7 | KRFKKFFRKIKKGFRKIFKKTKIFIGGTIPI [SP15] | 204.8 | concentration still safe for erythrocytes [1]: around 800 μg/ml; hemolysis [2]: 6.63%
8 | KRFKKFFKKLKNSVKKRVKKFFRKPRVIGVTFPF [SP3] | 204.8 | 
9 | KRVKRFKKFFKKVKKSVKKRLKKIFKKPMVIGVTIPF [SP2] | 204.8 | 
10 | RFKKFFRKVKKGVHRYFKKNKFYI [SP27-64] |  | Toxicity [1, 4]: 204.8 µM
11 | KRFVGSFQLVVGVSFRF [SP34] | 204.8 | 
12 | KRFLRVFRKLKKGLKKLFKRKKVVTGYVTA [SP32] | 102.4 | 
13 | DQVERGNFAKDGSKARVKKSLTKWVKFLKKIIAKLGRPLIGF [SP22] | 102.4 | 
14 | KRFQNFFRELEKKFREFFRVYRITIGATIRF [SP16] | 204.8 | concentration still safe for erythrocytes [1]: around 800 μg/ml; hemolysis [2]: 9.14%
15 | KRFAGFFQFVIGVSFHF [SP21] | 204.8 | 
16 | KKFFRKVKKGVHRYFKKNKFYIAA [SP27-66] |  | Toxicity [1, 4]: ≥409.6 µM
17 | VKKGVHRYFKKNKFYIAATIPYYG [SP27-72] |  | Toxicity [1, 4]: 204.8 µM
18 | KRFKKFFKKIKNGIKTFIKKTQMAIGSHFRW [SP30] | 204.8 | 
19 | FKKFFRKVKKGVHRYFKKNKFYIA [SP27-65] |  | Toxicity [1, 4]: 204.8 µM
20 | KRFKKFFKKLKNSVRKCAKKFFKKLRVIRVSIPF [SP24] | 102.4 | 
21 | KRFKKFLKKLKKSVKKHVKEFFKKPRVIGV [SP35] | 204.8 | 
22 | KRFKNFFKRVRDGIRDFFRKNHIVIGVNFRF [SP31] | 102.4 | 

Row | Substance | Hemolysis (μM) in 50% plasma [1] [µM] | further results
23 | KRFKKFFKKVKKSVKKRLKKIFKKPMVIGVTIPF [SP6] | 204.8 | 
24 | KVKKGVHRYFKKNKFYIAATIPYY [SP27-71] |  | Toxicity [1, 4]: 204.8 µM
25 | KRFKKFFRKLKKSVKKRVKKFFKKPRVIGVTIPF [SP11] | 204.8 | 
26 | AREKSFLQKMKVILQLSSQDQIQAF [SP20] | 204.8 | 
27 | KRFKKFFKKAKKSVKKRLKKFFNKTRVIGVSIPF [SP14] | 204.8 | 
28 | KRFKKFFMKLKKSVKKRVMKFFKKPMVIGVTFPF [SP12] | 51.2 | 
29 | KRFRKFFKRLLKSVRRAVKKFRKKPRLIGLSTLL [SP8] | 102.4 | 
30 | KRFAGFFQFVVGVSFRF [SP33] | 204.8 | 
31 | KFFRKVKKGVHRYFKKNKFYIAAT [SP27-67] |  | Toxicity [1, 4]: ≥409.6 µM
32 | KRFKKFFKKVKKSVKKRLKKIFKKPMVIGVSIPF [SP7] | 204.8 | 
33 | KRFKKFFRKVKKGVHRYFKKNKFY [SP27-63] |  | Toxicity [1, 4]: ≥409.6 µM; Toxicity [1, 5]: ≥409.6 µM
34 | KRFKNFFKKIRDGIHEFIHNNRFVIGVNFRF [SP29] | 102.4 | 
35 | KRFKKFFKKVKKSVKKRLKKIFKKPIVIGVSIPF [SP25] | 102.4 | 
36 | KRFKKFFKKIKTGIKKVIKKTKQAIASHFRW [SP18] | 204.8 | 
37 | KRFKKFFKKVKKSVKKRLKKIFKKPMVIGVTFPF [SP9] | 204.8 | 
38 | KRFKKFFKKLKNNVKKRVKKFFRKPRVIGVTIPF [SP4] | 204.8 | hemolysis ([1]; at 851 μg/ml): < 5%; viability of normal melanocytes (LDH release) [3]: did not affect the viability
39 | KRFKKFFRKVKKGVHRYFKKNKFYIAATIPYYG [SP27] | 102.4 | Toxicity [1, 4]: 102.4 µM; Toxicity [1, 5]: 102.4 µM; Toxicity ([1]; highest concentration of the peptide that lyses less than 5% of the human erythrocytes in human plasma within 1 hour): 102.4 µM; Toxicity ([1]; highest concentration that lyses less than 5% of the human erythrocytes in human plasma within 1 hour): 102.4 µM; viability of normal melanocytes (LDH release) [3]: did not affect the viability
40 | FFRKVKKGVHRYFKKNKFYIAATI [SP27-68] |  | Toxicity [1, 4]: 204.8 µM
41 | KRFLRLVVFKKLKKGLRKLFKKKKIVTGHVTS [SP28] | 204.8 | 
42 | RKVKKGVHRYFKKNKFYIAATIPY [SP27-70] |  | Toxicity [1, 4]: ≥408.6 µM
43 | KRFKKFFKKIKNSVKKRVKKFFKKPRVIGVSIPF [SP23] | 204.8 | 
